From ChEMBL document CHEMBL4808168, “The Discovery of Two Novel Classes of 5,5-Bicyclic Nucleoside-Derived PRMT5 Inhibitors for the Treatment of Cancer” (J Med Chem, 2021)

Key:
[1] = Selectivity for PRMT7 (unknown origin) over PRMT5 (unknown origin)
[2] = Selectivity for PRMT3 (unknown origin) over PRMT5 (unknown origin)
[3] = Selectivity for PRMT4 (unknown origin) over PRMT5 (unknown origin)
[4] = Selectivity for PRMT1 (unknown origin) over PRMT5 (unknown origin)
[5] = Selectivity for PRMT6 (unknown origin) over PRMT5 (unknown origin)
[6] = Selectivity for PRMT8 (unknown origin) over PRMT5 (unknown origin)

Measured: Selectivity ratio

Cc1ncnc2c1ccn2[C@@H]1O[C@@H]2[C@@H](Oc3ccc4cc(Br)c(N)nc4c3)CC[C@]2(O)[C@H]1O
> 4000: all assays above
